# Data reported in PMC2756574, “Crystal Structures of Multidrug Binding Protein TtgR in Complex with Antibiotics and Plant Antimicrobials” (Journal of Molecular Biology, 2007).
# Sequences of proteins named here, by UniProt entry; tags and fusion partners are left off.
# UniProt Q9AIU0, whole entry R176G: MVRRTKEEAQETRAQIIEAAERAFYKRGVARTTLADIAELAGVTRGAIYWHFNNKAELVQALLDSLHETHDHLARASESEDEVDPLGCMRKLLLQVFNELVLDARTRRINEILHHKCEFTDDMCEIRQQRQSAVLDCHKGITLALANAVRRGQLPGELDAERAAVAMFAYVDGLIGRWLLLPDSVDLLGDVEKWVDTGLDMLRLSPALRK
# Biological target: TtgR (Pseudomonas putida, UniProt Q9AIU0, R176G)
# Test: biochemical
structure (smiles),measurement,value
O=C1C[C@@H](c2ccc(O)cc2)Oc2cc(O)cc(O)c21 [naringenin],Kd,28.9 ± 2.5 µM
